The values below come from article doi:10.64898/2025.12.15.694443v1 (biorxiv, 2025).

By UniProt entry, the sequences of proteins in these tests, tags left out. Residues count along the entry.
UniProt P10398, 282-579: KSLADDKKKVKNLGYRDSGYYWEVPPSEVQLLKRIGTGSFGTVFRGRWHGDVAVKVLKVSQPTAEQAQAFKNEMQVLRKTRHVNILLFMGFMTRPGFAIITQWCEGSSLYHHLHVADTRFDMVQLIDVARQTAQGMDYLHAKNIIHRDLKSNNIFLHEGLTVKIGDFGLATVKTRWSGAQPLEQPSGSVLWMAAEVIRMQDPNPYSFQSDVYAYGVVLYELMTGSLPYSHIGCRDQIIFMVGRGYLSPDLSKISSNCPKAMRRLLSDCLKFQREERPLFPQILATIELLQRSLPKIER
UniProt P10398, 274-606 G300S/Y301D/Y302D: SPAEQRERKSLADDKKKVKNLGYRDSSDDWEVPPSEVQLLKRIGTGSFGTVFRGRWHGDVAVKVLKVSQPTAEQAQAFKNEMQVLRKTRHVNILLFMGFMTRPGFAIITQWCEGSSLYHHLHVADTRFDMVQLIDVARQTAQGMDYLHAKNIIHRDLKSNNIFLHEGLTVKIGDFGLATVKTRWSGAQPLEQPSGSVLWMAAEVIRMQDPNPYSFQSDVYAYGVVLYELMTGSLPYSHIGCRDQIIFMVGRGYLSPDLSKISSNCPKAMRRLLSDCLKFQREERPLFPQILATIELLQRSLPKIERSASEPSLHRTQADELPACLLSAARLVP

The term AC50 denotes the concentration at which the activity in the assay is half-maximal. Read a low AC50 as activity at low concentration. One may read the IC50 as the concentration needed to halve the response being measured. A higher IC50 goes with weaker potency.

Assay in all cases: biochemical
The target in experiment [1] is T1, ARAF monomer complex (ARAF/MEK1 SASA) (Homo sapiens, UniProt P10398).
For experiment [2], the target named is T1, ARAF monomer complex (ARAF/MEK1 SASA). This is another data set of the same source.
Experiment [3] has as its target T2, ARAF^SSDD (ARAF^SSDD/MEK1) (Homo sapiens, UniProt P10398, G300S/Y301D/Y302D).
Experiment [4] addresses T2, ARAF^SSDD (ARAF^SSDD/MEK1). This is another data set of the same source.

In the case of `OCCn1cc(-c2ccc3c(c2)CC/C3=N\O)c(-c2ccncc2)n1` [GDC0879], the values for the AC50 in experiment [1] and in experiment [3] were 0.286 ± 0.168 µM and 0.129 ± 0.0903 µM, respectively. The IC50 in experiment [2] and in experiment [4] was > 10 µM in each case.
